What was measured:
[1] = Ability to reduce cell density of AA8 cells to 50% after 4 hr of exposure to air; details: cho-aa8
[2] = Ability to reduce cell density of UV4 cells to 50% after 4 hr of exposure to air
[3] = tested on: EMT6; assay: Ability to reduce cell density of EMT6 cells to 50% after 4 hr of exposure to air
[4] = tested on: SK-OV-3; assay: Ability to reduce cell density of SKOV3 cells to 50% after 4 hr of exposure to air

With `CN(CCCl)CCCl` as the compound, how does the IC50 [1] read?
Its IC50 is 2500 nM.

And the IC50 [2]?
Its IC50 is 29 nM.

And the IC50 [3]?
Its IC50 is 150 nM.

And the IC50 [4]?
The IC50 was 1090 nM.

Source: ChEMBL document CHEMBL1134417, “Hypoxia-selective antitumor agents. 16. Nitroarylmethyl quaternary salts as bioreductive prodrugs of the alkylating agent mechlorethamine” (2001)
